Results on 1 molecule are retold here after patent EP0324212A1, “Glucuronic acid derivatives of opioid antagonists” (BAKER NORTON PHARMACEUTICALS, INC., priority 1988, dated 1989).

Molecules are shown by their SMILES. Where a name gives a salt, the structure may show the parent alone.

One series concerns opioid-dependant animals. The series can be described thus: Rapid Quantitative In Vivo Assay for Narcotic Antagonist of Katovich et al. (skin tail temperature rise as a CNS withdrawal sign). To be noted: Figure 1; doses as low as 10µg/kg. The source says: The Rapid Quantitative In Vivo Assay for Narcotic Antagonist of Katovich et al. (Substance and Alcohol Actions/Misuse, vol 5: 87095, 1984) was used. This assay is based on the extreme sensitivity of opioid-dependant animals to narcotic antagonists. Injection of these animals with a narcotic antagonist produces severe central nervous system withdrawal signs. One of these signs is an abrupt rise in the skin temperature of the tail.

Series [1] is described as follows: Analysis of blood, urine and feces of rats treated with nalmefene orally. The series is classed as in vivo. The source says: Thus nalmefene is almost totally biotransformed as a result of "first-pass" metabolism when administered orally. Such a high degree of biotransformation is common for this type of drug. However it was discovered that the relative concentrations of free nalmefene and nalmefene glucuronide in the feces of these animals were in marked contrast to the blood and urine. Whereas the ratio of nalmefene to nalmefene glucuronide in the blood and urine was about 1:100, in the feces the ratio was about 3:1.

`C=C1CC[C@@]2(O)[C@H]3Cc4ccc(O)c5c4[C@@]2(CCN3CC2CC2)[C@H]1O5` [Nalmefene HCl, 6-methylene-6-desoxy-N-cyclopropylmethyl-14-hydroxydihydronormorphine]: the “rise in skin tail temperature” value with opioid-dependant animals is reported as “marked rise”. For the same molecule, the “concentration of nalmefene glucuronide relative to concentration of free nalmefene” value in series [1] is on record as “about 100 fold”.
